Data as given in PMC11170107, “Development of a new hazard scoring system in primary neuronal cell cultures for drug-induced acute neuronal toxicity identification in early drug discovery” (Frontiers in Pharmacology, 2024).

How the values were obtained:
[1] = WHO adverse drug reactions VigiBase; ref Kumlien and Lundberg, 2010; cited from earlier work
[2] = established from VigiBase, SIDER, Elsevier drug information and FDA prescribing information
[3] = seizure ADR frequency in SIDER; ref Campillos et al., 2008; Kuhn et al., 2010; cited from earlier work
[4] = ref National library of medicine, Daylimed; cited from earlier work
[5] = Supplementary Table S1; cited from earlier work

Structure (SMILES): CN1c2ccccc2C(NCCCCCCC(=O)O)c2ccc(Cl)cc2S1(=O)=O (stereo not shown) [Tianeptine]
- Percentage seizures of total number of ADRs [1]: 0.8983%
- Classification* (degree of seizure risk) [2]: Low risk

Structure (SMILES): Cn1c(=O)c2[nH]cnc2n(C)c1=O [Theophylline]
- SIDER ADR on-/off-label [3]: 3% - 21%
- Classification* (degree of seizure risk) [2]: Risk
- FDA prescription information at therapeutic dose (Convulsion/ Seizure/Lower the seizure threshold/withdrawal) [4]: on label

Structure (SMILES): CC(C)C[C@H](CN)CC(=O)O [Pregabalin]
- SIDER ADR on-/off-label [3]: infrequent (0.1-1%)

Structure (SMILES): Cc1cc2c(s1)Nc1ccccc1N=C2N1CCN(C)CC1 [Olanzapine]
- SIDER ADR on-/off-label [3]: postmarketing, rare
- Percentage seizures of total number of ADRs [1]: 1.656%
- Free Cmax highest [5]: 18 nM
- FDA prescription information at therapeutic dose (Convulsion/ Seizure/Lower the seizure threshold/withdrawal) [4]: not found on label
